Measurements: patent US20100029636A1, “Lck inhibitors” (priority 2006, published 2010)

Chains of the proteins cited; added tags and fusions are not shown.
UniProt P06239, whole entry: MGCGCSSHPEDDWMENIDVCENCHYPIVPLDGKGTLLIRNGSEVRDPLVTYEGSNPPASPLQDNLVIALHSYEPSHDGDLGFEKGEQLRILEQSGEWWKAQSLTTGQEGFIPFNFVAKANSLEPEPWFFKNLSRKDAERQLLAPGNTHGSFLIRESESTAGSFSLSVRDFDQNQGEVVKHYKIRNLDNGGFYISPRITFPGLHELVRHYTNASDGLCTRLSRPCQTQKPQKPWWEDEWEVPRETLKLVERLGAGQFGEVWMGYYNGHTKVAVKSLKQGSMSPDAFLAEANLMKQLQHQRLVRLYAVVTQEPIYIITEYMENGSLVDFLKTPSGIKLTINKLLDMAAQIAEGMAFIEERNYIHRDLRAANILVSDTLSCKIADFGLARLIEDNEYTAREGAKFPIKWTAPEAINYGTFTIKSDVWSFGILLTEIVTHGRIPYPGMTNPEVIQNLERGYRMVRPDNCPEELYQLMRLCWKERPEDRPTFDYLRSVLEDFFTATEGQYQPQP

Target: Lck (Homo sapiens, UniProt P06239)
Experiment: Biochemical Lck kinase assay (TR-FRET, LANCE)
Conditions: read-out: IC50 values in the Lck assay; 50% inhibition of the kinase reaction, at least 8 concentrations

IC50 | Structure (SMILES)
16 nM | CCCOC(=O)Nc1ccc(-c2cnc3c(-c4ccc(N5CCN(C)CC5)cc4)cnn3c2N)cc1
18 nM | CN1CCN(c2cccc(-c3cnn4c(N)c(-c5ccc(NC(=O)Nc6ccc(F)cc6)cc5)cnc34)c2)CC1
